Measured values taken from patent US20040071967A1, “Microcapsule containing phase-change material and nucleating agent” (priority 2000, published 2004).

Tests used:
Assay type in all cases: physicochemical
Settings in all cases: Table 7
[1] = Critical aggregation concentration (solubility limit or critical micelle concentration)
Protocol: (§1) The critical aggregation concentrations (solubility limit or critical micelle concentration) were determined by intersection of the linear portion of a surface tension/In concentration curve with the limiting surface tension as is described in many textbooks. The limiting surface tensions at 0.1 and 20 bubbles/second (b/s) represent the lowest surface tensions in water which can be achieved at the given surface creation rate for a given surfactant regardless of the amount of surfactant used. These values give information about the relative ability to a surfactant to reduce surface defects under near-equilibrium condition (0.1 b/s) through very dynamic conditions (20 b/s). Lower surface tensions would allow the elimination of defects upon application of a formulation onto lower energy surfaces.

[2] = Dynamic surface tension of aqueous solutions, maximum bubble pressure method
Protocol: as §1, with “In practical terms, high bubble rates correspond to high printing speeds in lithographic printing, high spray or roller velocities in coating applications, and rapid application rates for agricultural products. […] This value is a measure of the efficiency of a surfactant. […] The critical” for “The critical”

[3] = Ross-Miles foam test based upon ASTM D 1173-53, 0.1 wt % solution
Protocol: The foam height is measured at the completion of the addition (“Initial Foam Height”) and the time required for the foam to dissipate is recorded (“Time to 0 Foam”). This test provides a comparison between the foaming characteristics of various surfactant solutions. In general, in coatings, inks, and agricultural formulations, foam is undesirable because is complicates handling and can lead to coating and print defects, and to inefficient application of agricultural materials.

In the case of “5 mole ethylene oxide, 2 mole propylene oxide adduct of 2,4,7,9-tetramethyl-5-decyne-4,7-diol [Example 6]”, the “CAG (Critical aggregation concentration)” value [1] is reported as 0.10 wt %, the “γ (0.1% solution) 1 b/s” value ([2]; 0.1% solution, 1 b/s) is reported as 30.0 dyne/cm and the “γ (0.1% solution) 6 b/s” value ([2]; 0.1% solution, 6 b/s) is reported as 37.1 dyne/cm. The “limiting γ 0.1 b/s” value ([2]; 0.1 b/s) was 28.6 dyne/cm, the “limiting γ 20 b/s” value ([2]; 20 b/s) was 31.2 dyne/cm and the pC20 [2] was 4.16. The “RM Foam initial” value ([3]; Ross-Miles foam, initial) was 1.1 cm and the “RM Foam (t to 0)” value ([3]; time to 0 foam in seconds) was “(5 s)”.
